Key:
[1] = target: Acetylcholinesterase (Homo sapiens) (UniProt P22303); test: Bimolecular rate constant for reactivation of AchE in human erythrocytes
[2] = target: Acetylcholinesterase (Homo sapiens) (UniProt P22303); test: Kinetic constant for formation of the inhibited enzyme/oximate complex in human erythrocytes
[3] = target: Acetylcholinesterase (Homo sapiens) (UniProt P22303); test: Kinetic constant for the transformation of the [inhibited enzyme/oximate] complex to active enzyme in human erythrocytes
[4] = target: Acetylcholinesterase (Homo sapiens) (UniProt P22303); test: Effective rate constant for reactivation of AchE in human erythrocytes
[5] = target: Acetylcholinesterase (Homo sapiens) (UniProt P22303); test: Effective rate constant for reactivation of Acetylcholinesterase in human
[6] = target: Acetylcholinesterase (Homo sapiens) (UniProt P22303); test: Kinetic constant for effect on transformation of the [inhibited enzyme/oximate] complex to active enzyme in human
[7] = target: Acetylcholinesterase (Homo sapiens) (UniProt P22303); test: Bimolecular rate constant for reactivation of acetylcholinesterase in human
[8] = target: Acetylcholinesterase (Homo sapiens) (UniProt P22303); test: Kinetic constant for formation of the inhibited enzyme/oximate complex in human
[9] = target: Acetylcholinesterase (Homo sapiens) (UniProt P22303); test: Effective rate constant for reactivation of acetylcholinesterase in human
[10] = target: Acetylcholinesterase (Homo sapiens) (UniProt P22303); test: Effective rate constant for reactivation of AchE in human

By UniProt entry, the sequences of proteins in these tests, tags left out. Where a name states a change or a piece, a line headed by the entry shows the natural chain unless it says otherwise.
UniProt P22303: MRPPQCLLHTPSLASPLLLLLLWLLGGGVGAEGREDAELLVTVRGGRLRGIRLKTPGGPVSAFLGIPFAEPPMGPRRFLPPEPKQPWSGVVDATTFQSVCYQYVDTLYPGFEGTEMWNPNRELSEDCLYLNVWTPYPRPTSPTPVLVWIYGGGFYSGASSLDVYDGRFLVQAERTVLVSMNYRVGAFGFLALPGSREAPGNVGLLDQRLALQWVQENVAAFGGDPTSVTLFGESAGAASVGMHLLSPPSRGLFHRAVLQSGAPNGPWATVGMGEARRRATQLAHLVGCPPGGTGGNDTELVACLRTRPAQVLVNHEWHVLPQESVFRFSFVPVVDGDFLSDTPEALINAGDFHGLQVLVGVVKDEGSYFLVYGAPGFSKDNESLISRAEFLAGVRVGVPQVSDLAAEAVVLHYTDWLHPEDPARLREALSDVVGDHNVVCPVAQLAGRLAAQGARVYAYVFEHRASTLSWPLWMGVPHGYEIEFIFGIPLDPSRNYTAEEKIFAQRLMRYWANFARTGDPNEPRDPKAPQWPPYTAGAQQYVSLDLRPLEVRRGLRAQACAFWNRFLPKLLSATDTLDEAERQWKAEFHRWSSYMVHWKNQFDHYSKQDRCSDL

C#CC1(OC[n+]2ccn(C)c2/C=N/O)CCCC1
kOX [1]: 20.3 M⁻¹ s⁻¹ | Kr [2]: 91000 M | kr [3]: 11100 min⁻¹ | kHOX [4]: 5.78 M⁻¹ s⁻¹

C#CCCCC[n+]1ccn(COC)c1/C=N/O
kOX [1]: 7.3 M⁻¹ s⁻¹ | Kr [2]: 309000 M | kr [3]: 13500 min⁻¹ | kHOX [4]: 2.08 M⁻¹ s⁻¹

C#CCCCC[n+]1ccccc1/C=N/O
Kr [2]: 119000 M | kHOX [5]: 4.65 M⁻¹ s⁻¹ | kr [6]: 11700 min⁻¹ | kOX [7]: 16.3 M⁻¹ s⁻¹

C#CCCCC[n+]1ccn(C)c1/C=N/O
kr [6]: 13800 min⁻¹ | kOX [7]: 22.4 M⁻¹ s⁻¹ | Kr [8]: 102000 M | kHOX [9]: 6.4 M⁻¹ s⁻¹

C#CCOC[n+]1ccn(C)c1/C=N/O
kOX [1]: 7.13 M⁻¹ s⁻¹ | Kr [2]: 474000 M | kr [3]: 20300 min⁻¹ | kHOX [4]: 2.03 M⁻¹ s⁻¹

C#CCCOC[n+]1ccn(C(C)(C)C)c1/C=N/O
kOX [1]: 2.22 M⁻¹ s⁻¹ | Kr [2]: 2.17e+06 M | kHOX [10]: 0.633 M⁻¹ s⁻¹ | kr [3]: 29000 min⁻¹

CC#CCCOC[n+]1ccn(C)c1/C=N/O
kOX [1]: 5.62 M⁻¹ s⁻¹ | Kr [2]: 131000 M | kr [3]: 4420 min⁻¹ | kHOX [4]: 1.48 M⁻¹ s⁻¹

C#CCCOC[n+]1ccn(C)c1/C=N/O
kOX [1]: 7.22 M⁻¹ s⁻¹ | Kr [2]: 82000 M | kr [3]: 3450 min⁻¹ | kHOX [4]: 2.08 M⁻¹ s⁻¹

C#CCC(C)OC[n+]1ccn(C)c1/C=N/O (configuration not stated)
kOX [1]: 9.72 M⁻¹ s⁻¹ | Kr [2]: 84000 M | kr [3]: 4890 min⁻¹ | kHOX [4]: 2.77 M⁻¹ s⁻¹

C#CCC(CCC)OC[n+]1ccn(C)c1/C=N/O (configuration not stated)
kOX [1]: 6.52 M⁻¹ s⁻¹ | Kr [2]: 36000 M | kr [3]: 1420 min⁻¹ | kHOX [4]: 1.85 M⁻¹ s⁻¹

C#CCCCOC[n+]1ccn(C)c1/C=N/O
kOX [1]: 12.6 M⁻¹ s⁻¹ | Kr [2]: 67000 M | kr [3]: 5060 min⁻¹ | kHOX [4]: 3.57 M⁻¹ s⁻¹

C#CCCOC[n+]1ccn(C)c1C
kOX [1]: 0 M⁻¹ s⁻¹ | Kr [2]: 0 M | kr [3]: 0 min⁻¹ | kHOX [4]: 0 M⁻¹ s⁻¹

C#CCCOC[n+]1ccc(/C=N/O)cc1
Kr [2]: 503000 M | kHOX [5]: 7.33 M⁻¹ s⁻¹ | kr [6]: 77700 min⁻¹ | kOX [7]: 25.8 M⁻¹ s⁻¹

C#CC(C)C(C)OC[n+]1ccn(C)c1/C=N/O (configuration not stated)
kOX [1]: 8.52 M⁻¹ s⁻¹ | Kr [2]: 44000 M | kr [3]: 2250 min⁻¹ | kHOX [4]: 2.42 M⁻¹ s⁻¹

CC#CC(C)OC[n+]1ccn(C)c1/C=N/O (configuration not stated)
kOX [1]: 5.88 M⁻¹ s⁻¹ | Kr [2]: 405000 M | kr [3]: 14300 min⁻¹ | kHOX [4]: 1.68 M⁻¹ s⁻¹

C#CC(CCC)OC[n+]1ccn(C)c1/C=N/O (configuration not stated)
kOX [1]: 13.6 M⁻¹ s⁻¹ | Kr [2]: 81000 M | kr [3]: 6600 min⁻¹ | kHOX [4]: 3.88 M⁻¹ s⁻¹

C#CC(C)OC[n+]1ccn(C)c1/C=N/O (configuration not stated)
kOX [1]: 10.3 M⁻¹ s⁻¹ | Kr [2]: 161000 M | kr [3]: 9960 min⁻¹ | kHOX [4]: 2.93 M⁻¹ s⁻¹

C#CC1CCCCC1OC[n+]1ccn(C)c1/C=N/O (configuration not stated)
kOX [1]: 14.2 M⁻¹ s⁻¹ | Kr [2]: 86000 M | kr [3]: 7390 min⁻¹ | kHOX [4]: 4.05 M⁻¹ s⁻¹

C#CC(C)(C)OC[n+]1ccn(C)c1/C=N/O
kOX [1]: 6.92 M⁻¹ s⁻¹ | Kr [2]: 312000 M | kr [3]: 13000 min⁻¹ | kHOX [4]: 1.97 M⁻¹ s⁻¹

C#CCCCC[n+]1ccc(/C=N/O)cc1
Kr [2]: 163000 M | kHOX [5]: 8.45 M⁻¹ s⁻¹ | kr [6]: 29000 min⁻¹ | kOX [7]: 29.7 M⁻¹ s⁻¹

C[n+]1ccccc1C=NO
kHOX [4]: 8.03 M⁻¹ s⁻¹

C#CC(CC)OC[n+]1ccn(C)c1/C=N/O (configuration not stated)
kOX [1]: 8.2 M⁻¹ s⁻¹ | Kr [2]: 404000 M | kr [3]: 19900 min⁻¹ | kHOX [4]: 2.33 M⁻¹ s⁻¹

C#CCCCC[n+]1ccn(C(C)(C)C)c1/C=N/O
kOX [1]: 5.38 M⁻¹ s⁻¹ | Kr [2]: 189000 M | kHOX [10]: 1.53 M⁻¹ s⁻¹ | kr [3]: 6110 min⁻¹

CC#CC(C)(C)OC[n+]1ccn(C)c1/C=N/O
kOX [1]: 3.03 M⁻¹ s⁻¹ | Kr [2]: 254000 M | kr [3]: 4620 min⁻¹ | kHOX [4]: 0.85 M⁻¹ s⁻¹

C#CCCCC[n+]1cn(C)c(/C=N/O)n1
Kr [2]: 369000 M | kHOX [5]: 0.933 M⁻¹ s⁻¹ | kr [6]: 7300 min⁻¹ | kOX [7]: 3.3 M⁻¹ s⁻¹

— ChEMBL document CHEMBL1124682, “Quaternary salts of 2-[(hydroxyimino)methyl]imidazole. 3. Synthesis and evaluation of (alkenyloxy)-, (alkynyloxy)-, and (aralkyloxy)methyl quaternarized 2-[(hydroxyimino)methyl]-1-alkylimidazolium halides as reactivators and therapy for soman intoxication” (1989)
